These results are taken from publication PMC5063977 (The Journal of Biological Chemistry, 2016).

Sequences of proteins named here, by UniProt entry; tags and fusion partners are left off. Residues count along the entry.
UniProt O60895, 43-175: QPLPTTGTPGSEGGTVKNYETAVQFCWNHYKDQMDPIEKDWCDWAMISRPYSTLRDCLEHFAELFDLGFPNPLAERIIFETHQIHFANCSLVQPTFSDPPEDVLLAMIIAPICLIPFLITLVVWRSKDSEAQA
UniProt Q16602, 23-461: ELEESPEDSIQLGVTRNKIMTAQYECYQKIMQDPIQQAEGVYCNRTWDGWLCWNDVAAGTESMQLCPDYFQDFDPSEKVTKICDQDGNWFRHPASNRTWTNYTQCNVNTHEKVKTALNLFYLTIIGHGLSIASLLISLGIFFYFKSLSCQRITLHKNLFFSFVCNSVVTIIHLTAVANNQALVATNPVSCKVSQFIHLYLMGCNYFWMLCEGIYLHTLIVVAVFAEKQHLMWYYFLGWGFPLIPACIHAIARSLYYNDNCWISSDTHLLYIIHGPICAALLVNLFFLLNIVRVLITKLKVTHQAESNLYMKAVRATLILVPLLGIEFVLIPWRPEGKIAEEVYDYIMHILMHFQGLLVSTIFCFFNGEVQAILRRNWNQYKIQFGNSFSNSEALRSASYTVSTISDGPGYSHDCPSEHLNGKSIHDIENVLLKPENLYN

For this assay, the target named is T1, RAMP2-CLR (AM1 receptor) (Homo sapiens, UniProt O60895+Q16602).
T1 construct: FLAG; expressed in transfected cells; host or cells: HEK-293 or HEK-293S cells, transient transfection, 1:1 RAMP:CLR
Nature of the assay: S. cerevisiae growth assay, GPA1/Gαq chimera, RAMP2 + CLR. Format: cell-based. The protocol:
FIGURE 7. […] Reporter gene activity was determined following 24-h stimulation. All data are expressed as percentage of the maximum response observed in yeast strain MMY11 and are means ± S.E. of n individual data sets. D, Bar chart showing the efficacy of each ligand for each RAMP-CLR combination at the Gαq chimera determined via application of the operational model of receptor agonism (Ref. [34] and Table 1). Data were determined as statistically different from the cognate ligand for each receptor (***, p < 0.001; ****, p < 0.0001) using one-way ANOVA with Bonferroni's post-test. E, signaling bias plots were calculated as ΔΔ(τ/Ka) values on a logarithmic scale for each ligand and for each chimera G protein for the three individual RAMP-CLR complexes.
General yeast procedures were performed as described previously ([22], [24]). […] Receptor signaling was measured using the yeast growth assay as described previously ([24]). […] A fluorescein signal was detected as an increase in fluorescence (excitation wavelength = 485 nm, emission wavelength = 535 nm) as a measure of growth. Different concentrations of ligand (0.01 nM–100 μM) were assayed using 96-well plates, and fluorescence was detected using a Tecan Infinite M200 microplate reader (Tecan Ultra Evolution, Reading, UK) or a Mithras LB 940 microplate reader (Berthold Technologies, Harpenden, UK) for 20 h. […]

In general, EC50 refers to the midpoint of the concentration-response curve. What is called Kd is a measure of binding affinity in units of concentration. For `CSCC[C@H](NC(=O)[C@H](CC(C)C)NC(=O)[C@H](CCC(N)=O)NC(=O)[C@H](Cc1c[nH]c2ccccc12)NC(=O)[C@H](CC(C)C)NC(=O)[C@H](CCCNC(=N)N)NC(=O)[C@H](Cc1c[nH]cn1)NC(=O)[C@H](CO)NC(=O)[C@H](CC(C)C)NC(=O)[C@H](CC(N)=O)NC(=O)[C@H](CCC(N)=O)NC(=O)[C@@H](NC(=O)[C@H](CCC(N)=O)NC(=O)[C@@H]1CSSC[C@H](NC(=O)CNC(=O)[C@@H](NC(=O)[C@H](CCCNC(=N)N)NC(=O)[C@H](CC(C)C)NC(=O)[C@H](CC(C)C)NC(=O)[C@H](CCC(N)=O)NC(=O)[C@H](C)NC(=O)[C@H](CCC(N)=O)NC(=O)[C@@H](N)[C@@H](C)O)C(C)C)C(=O)N[C@@H](C(C)C)C(=O)N[C@@H](CC(C)C)C(=O)NCC(=O)N[C@@H]([C@@H](C)O)C(=O)N1)C(C)C)C(=O)NCC(=O)N1CCC[C@H]1C(=O)N[C@@H](C)C(=O)NCC(=O)N[C@@H](CCCNC(=N)N)C(=O)N[C@@H](CCC(N)=O)C(=O)N[C@@H](CC(=O)O)C(=O)N[C@@H](CO)C(=O)N[C@@H](C)C(=O)N1CCC[C@H]1C(=O)N[C@H](C(=O)N[C@@H](CC(=O)O)C(=O)N1CCC[C@H]1C(=O)N[C@@H](CO)C(=O)N[C@@H](CO)C(=O)N1CCC[C@H]1C(=O)N[C@@H](Cc1c[nH]cn1)C(=O)N[C@@H](CO)C(=O)N[C@@H](Cc1ccc(O)cc1)C(N)=O)C(C)C` [AM2, adrenomedullin 2], the EC50 is 0.603 nM and the Kd is 0.692 nM.
